{"source": "patent EP1914237B1", "about": "(priority 1999, dated 2001)", "key": {"HIV-1 [1]": {"test_system": "HIV-1"}, "HIV-1 [2]": {"test_system": "HIV-1", "assay": "microbe, parasite or virus in culture", "settings": "Human immunodeficiency virus 1, 72 h, read-out: EC50, µM, in HIV-1 plaque reduction assay"}}, "data": [{"compound": "CCCCCCCCCCCCCCCCOCCCOP(=O)(O)COCCn1cnc2c(N)ncnc21", "note": "[HDP-Adefovir]", "values": [{"measurement": "logs more active than adefovir", "setting": "HIV-1 [1]", "value": "more than 5 logs"}, {"measurement": "EC50", "setting": "HIV-1 [2]", "value": 0.0001, "unit": "µM"}]}]}
